Values quoted from earlier work, collected in US5658939A, “Methionine sulfone and S-substituted cysteine sulfone derivatives as enzyme inhibitors” (Corvas International Inc., priority 1995, dated 1997).

Target: human alphathrombin
Details: Table 4, literature values (footnotes c and d); cited from earlier work

Question: With CC1CNc2c(cccc2S(=O)(=O)N[C@@H](CCCNC(=N)N)C(=O)N2CC[C@@H](C)C[C@@H]2C(=O)O)C1 (stereo partly drawn) [Argatroban, 2R,4R-4-methyl-1-[N-2-(3-methyl-1,2,3,4-tetrahydro-8-quinolinesulfonyl)-L-argininal]-2-piperdinecarboxylic acid, reference compound] as the compound, how does the Ki read?
Answer: 0.019 µM
